From patent US20220381657A1, “METHOD FOR PREPARING BIOLOGICAL MATERIAL HAVING EXCELLENT LIGHT-TRANSMITTING PROPERTY” (RIKEN, priority 2016, published 2022)

tested on: fixed brain tissue suspension; test: 1st delipidation assay: solubilization of fixed brain tissue suspension, turbidity at 600 nm; parameters: species or system mice; conditions: Table 1; 10 wt % chemical, fixed mouse brain suspension, 37° C. overnight; PBS = 1.000

Row | Compound | 1st delipidation assay Relative OD600
1 | CCCCCCCCCCCCCCCC[N+](C)(C)C.[Cl-] [#1235, Hexadecyltrimethyl- ammonium chloride] | 0.332
2 | CC(=O)O.CCCCCCCCCCCCN [#0627, Dodecylamine acetate] | 0.329
3 | CCCCCCCCCCCC(=O)N(C)CC(=O)[O-].[Na+] [#1466, Sodium N- lauroylsarcosinate] | 0.237
4 | CCCCCCCCC(=O)[O-].[Na+] [#0865, Sodium nonanoate] | 0.155
